Compounds with a hit are over-represented: about 1.2% of the library has one in this group of screens.
Yeast UUG start: alters start codon recognition fidelity in yeast; S. cerevisiae UUG-firefly luciferase reporter, luminescence/redox ratio; activity score, % at 18.7 µM; actives 0.13% (n = 350,000);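 active means replicate mean at a twofold rise or more, about +100% in these data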;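 further: firefly luciferase made from a UUG start codon reports start codon fidelity; reporter light over untreated wells divided by growth signal over untreated wells; some hits fall short of that in this replicate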
miR122 inh: miR-122 inhibition in Huh7 cells | Huh7 miR-122 Renilla luciferase sensor, 48 h; neutral wells = 0, positive control = 100 | activation (reporter increase), % at 12.5 µM | 340,000 compounds, 0.3% hits | AID 602342;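 active = mean replicate activation score at least 90 and every replicate individually at or above 90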;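 note: higher luciferase means less miR-122 activity so hits act as miR-122 inhibitors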
Cneo AK release: Cryptococcus neoformans lysis via adenylate kinase release | C. neoformans lysis, adenylate kinase release luminescence, 4 h; normalised: neutral wells 0, clomiphene wells 100 | lysis activity, % at 15 µM | 360,000 compounds, 0.2% hits | AID 651654;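 active = mean lysis activity across replicates of at least 80%, whatever share of replicates individually reach that level; inactive = mean lysis activity below 80%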
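Material: C. neoformans cells | Amount: Yeast cell density of 5 × 10^6 cells/mL | Medium: Fresh YPD growth medium | Dosing: Single dose | Times: Static 4 h at 37 °C with compound, 1 h detection | Detection: AK luminescence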
Statin myotox sup: suppressors of simvastatin-induced myotoxicity in C2C12 myotubes; ATP luminescence, 48 h; scaled: DMSO 0, geranylgeraniol control 100; rescue of ATP level, % at 7.49 µM; 330,000 compounds, 0.78% hits; AID 602340;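 active = mean ATP rescue above about 67%, or every replicate alone reaching that limit, limit read from the data, passing the limit was not always enough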;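 note: myotubes were challenged with 10 µM simvastatin during compound exposure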
Of the large screens only hits and unclear results are named; the others gave an inactive call; [ ] = dose if it differs, or a comment.

C=CCn1c(=N)c(C#N)cc2c(=O)n3ccccc3nc21	Statin myotox sup 94 (no result: Yeast UUG start, Cneo AK release)
CC(C)COc1cc(=O)[nH]c(SCC(C)C)n1	Statin myotox sup 148
COc1cccc(OC)c1OCCCSc1nc(C)cc(=O)[nH]1	none (no result: Yeast UUG start, Cneo AK release)
CO[C@H]1CN(C)C(=O)c2cc(NC(=O)c3ccccc3)ccc2OC[C@@H](C)N(C(=O)CN(C)C)C[C@H]1C	none
COc1ccc(S(=O)(=O)N(C)C[C@@H]2OCCCC[C@H](C)Oc3ccc(NS(=O)(=O)c4ccc(F)cc4)cc3C(=O)N([C@H](C)CO)C[C@H]2C)cc1	none
COc1ccc(S(=O)(=O)N(C)C[C@H]2OCCCC[C@@H](C)Oc3ccc(NS(=O)(=O)c4ccc(F)cc4)cc3C(=O)N([C@@H](C)CO)C[C@H]2C)cc1	none
COc1ccc(S(=O)(=O)Nc2ccc3c(c2)C(=O)N([C@@H](C)CO)C[C@@H](C)[C@@H](CN(C)S(=O)(=O)c2cccs2)OCCCC[C@H](C)O3)cc1	Statin myotox sup 91
COc1ccc(S(=O)(=O)Nc2ccc3c(c2)C(=O)N([C@@H](C)CO)C[C@@H](C)[C@@H](CN(C)S(=O)(=O)c2ccc(F)cc2)OCCCC[C@@H](C)O3)cc1	Statin myotox sup 133
COc1ccc(S(=O)(=O)Nc2ccc3c(c2)C(=O)N([C@@H](C)CO)C[C@H](C)[C@H](CN(C)C(=O)Nc2ccccc2)OCCCC[C@@H](C)O3)cc1	miR122 inh 120[16.7 µM] (no result: Statin myotox sup)
COc1ccc(S(=O)(=O)Nc2ccc3c(c2)C(=O)N([C@@H](C)CO)C[C@@H](C)[C@@H](CN(C)S(=O)(=O)c2ccc(F)cc2)OCCCC[C@H](C)O3)cc1	Statin myotox sup 151
CCOc1cc(CNn2nnnc2N)ccc1OCC(=O)NC(C)(C)C	Statin myotox sup 83
C[C@@H](O)C#Cc1ccc([C@H]2[C@H](CO)N3CCCCN(CC4CC4)C[C@@H]23)cc1	none
COc1cccc(S(=O)(=O)N2CCCCN3[C@@H](CO)[C@@H](c4ccc(C#CCC(C)C)cc4)[C@@H]3C2)c1	Cneo AK release 84
CCS(=O)(=O)N1CCCCN2[C@H](C1)[C@@H](c1ccc(-c3ccc(C#N)cc3)cc1)[C@@H]2CO	Cneo AK release 91
C[C@@H](O)C#Cc1ccc([C@@H]2[C@H](CO)N3CCCCN(CC4CC4)C[C@@H]23)cc1	Cneo AK release 103
COc1cccc(S(=O)(=O)N2CCCCN3[C@H](C2)[C@@H](c2ccc(C#CCC(C)C)cc2)[C@@H]3CO)c1	none
CCS(=O)(=O)N1CCCCN2[C@H](CO)[C@H](c3ccc(-c4ccc(C#N)cc4)cc3)[C@@H]2C1	none
FC(F)(F)c1nnc2c(Sc3ccccc3)nc3ccc(Cl)cc3n12	miR122 inh 307
Cc1ccc(/C=N/n2nnnc2N)o1	none
Cc1nn(C)cc1/C=N/n1nnnc1N	Statin myotox sup 107
Cn1c(=O)c2cc(S(=O)(=O)NCCC(=O)NCCC3=CCCCC3)ccc2n(C)c1=O	miR122 inh 103 (no result: Statin myotox sup)
Fc1ccc(C[n+]2csc3ccccc32)cc1	Statin myotox sup 74
O=C(N[C@H]1CC[C@H](CCNS(=O)(=O)c2ccc(Cl)cc2)O[C@H]1CO)c1cccnc1	none (no result: miR122 inh)
CCc1ccc(NC(=O)C2CCCN(S(=O)(=O)c3cccs3)C2)cc1 (centres undefined)	none
O=C(Nc1ccc(Br)cc1)C1CCCN1S(=O)(=O)c1cccs1 (centres undefined)	Statin myotox sup 139
Cc1ccc(NC(=O)C2CCCN(S(=O)(=O)c3cccs3)C2)cc1 (centres undefined)	Statin myotox sup 78
CCn1c(C)c(C(C)=O)c(N2CCCCC2)nc1=S	Statin myotox sup 79
CCn1c(C)c(C(C)=O)c(N2CCC(C(N)=O)CC2)nc1=S	none
CCOc1ccc(-c2cccc(NS(=O)(=O)c3cc([N+](=O)[O-])ccc3C)c2)nn1	miR122 inh 130
CCOc1ccc(-c2cccc(NS(=O)(=O)c3ccccc3[N+](=O)[O-])c2)nn1	none
Cc1ccc(CCNc2ccc3ccccc3c2)cn1	Statin myotox sup 94 (no result: Yeast UUG start, Cneo AK release)
Cc1ccc(NCCc2ccc(C)nc2)cc1	none
COc1ccc(CCN2C(=O)C3C(C2=O)C2C=CC3C23CC3)cc1OC (centres undefined)	Statin myotox sup 118
O=C1C2C(C(=O)N1CCc1ccccc1)C1C=CC2C12CC2 (centres undefined)	none
O=C(C[C@H]1CC[C@H]2[C@@H](COC[C@H](O)CN2C(=O)Nc2ccc3c(c2)OCO3)O1)N1CCN(c2ccccc2)CC1	Cneo AK release 91 (no result: Yeast UUG start)
O=C(C[C@@H]1CC[C@H]2[C@@H](COC[C@@H](O)CN2C(=O)Nc2ccc(Cl)cc2)O1)NCCc1ccncc1	Cneo AK release 100 (no result: Yeast UUG start)
O=C(C[C@H]1CC[C@H]2[C@@H](COC[C@@H](O)CN2C(=O)Nc2ccc(Cl)cc2)O1)N1CCCCC1	Cneo AK release 87
O=C(C[C@H]1CC[C@H]2[C@@H](COC[C@H](O)CN2C(=O)Nc2ccc(Cl)cc2)O1)NCCc1ccncc1	none (no result: Yeast UUG start)
COc1ccc(S(=O)(=O)Nc2ccc3c(c2)CC(=O)N([C@H](C)CO)C[C@H](C)[C@@H](CN(C)S(=O)(=O)c2ccc(Cl)cc2)O3)cc1	none
CO[C@H]1CN(C)C(=O)c2cc(NC(=O)NC(C)C)ccc2OC[C@H](C)N(CC2CC2)C[C@@H]1C	none (no result: Yeast UUG start, miR122 inh)
O=C(C[C@@H]1C=C[C@H](NC(=O)c2ccccn2)[C@@H](CO)O1)NCc1cc(F)cc(F)c1	none (no result: Yeast UUG start, miR122 inh)
CCOCC(=O)NCc1ccc2c(c1)OCO2	Statin myotox sup 76
O=C(CCc1ccc(S(=O)(=O)NCCc2ccccc2)cc1)NCc1ccc2c(c1)OCO2	miR122 inh 196
O=C(CCc1ccc(S(=O)(=O)NCc2ccccc2)cc1)NCc1ccc2c(c1)OCO2	none
C[C@@H]1CCCCO[C@H](CN(C)S(C)(=O)=O)[C@@H](C)CN([C@@H](C)CO)C(=O)c2cc(NC(=O)c3ccccc3)ccc2O1	none
CC(=O)C[C@@H](O)CC(=O)[C@@H]1OC(=O)CCCCCCc2ccccc21	Statin myotox sup 112
CC(=O)C[C@H](O)CC(=O)[C@H]1OC(=O)CCCCCc2ccccc21	none
CCNC(=O)C[C@H]1C=C[C@@H](NS(=O)(=O)c2ccc(C)cc2)[C@H](CO)O1	none (no result: miR122 inh)
COCCNC(=O)C[C@H]1C=C[C@H](NS(=O)(=O)c2ccc(C)cc2)[C@@H](CO)O1	Cneo AK release 105 (no result: miR122 inh)
Cc1ccc(S(=O)(=O)N[C@H]2C=C[C@H](CC(=O)NCCCN(C)C)O[C@@H]2CO)cc1	none (no result: miR122 inh)
COCCNC(=O)C[C@H]1C=C[C@@H](NS(=O)(=O)c2ccc(C)cc2)[C@H](CO)O1	Cneo AK release 93 (no result: miR122 inh)
C[C@@H]1CN([C@@H](C)CO)C(=O)c2cc(C3=CCCC3)cnc2O[C@@H]1CN(C)C(=O)c1ccc2c(c1)OCO2	none (no result: Yeast UUG start)
CC(=O)C[C@H]1c2cc(C(F)(F)F)ccc2S(=O)(=O)N1C1CCCCC1	miR122 inh 118
COC(=O)C[C@H]1c2cc(C(F)(F)F)ccc2S(=O)(=O)N1C1CCCCC1	none (no result: Statin myotox sup)
C/C=C/c1ccc2c(c1)O[C@@H](CN(C)C(=O)COC)[C@@H](C)CN([C@H](C)CO)S2(=O)=O	none (no result: miR122 inh)

High-throughput results deposited in PubChem by Broad Institute.
